In PubChem BioAssay (NCI):
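A five-concentration, 48-hour dose response in 96-well plates underlies each endpoint, interpolated linearly between surrounding concentrations. Here, GI50 denotes the concentration required for 50% inhibition of growth. At the TGI there is no net growth.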

Columns and labels:
Test in all cases: DTP human tumour cell line panel, 48 h
[1] = test system: 786-0 renal
[2] = test system: A498 renal
[3] = test system: A549 NSCLC
[4] = test system: ACHN renal
[5] = test system: CAKI-1 renal
[6] = test system: CCRF-CEM leukemia
[7] = test system: COLO 205 colon
[8] = test system: DLD-1 colon
[9] = test system: DMS 114 small cell lung
[10] = test system: DMS 273 small cell lung
[11] = test system: EKVX NSCLC
[12] = test system: HCC-2998 colon
[13] = test system: HCT-116 colon
[14] = test system: HCT-15 colon
[15] = test system: HL-60(TB) leukemia
[16] = test system: HOP-62 NSCLC
[17] = test system: HOP-92 NSCLC
[18] = test system: HT29 colon
[19] = test system: IGROV1 ovarian
[20] = test system: K-562 leukemia
[21] = test system: KM12 colon
[22] = test system: KM20L2 colon
[23] = test system: LOX IMVI melanoma
[24] = test system: LXFL 529 NSCLC
[25] = test system: M14 melanoma
[26] = test system: M19-MEL melanoma
[27] = test system: MALME-3M melanoma
[28] = test system: MOLT-4 leukemia
[29] = test system: NCI-H226 lung
[30] = test system: NCI-H23 lung
[31] = test system: NCI-H322M lung
[32] = test system: NCI-H460 lung
[33] = test system: NCI-H522 lung
[34] = test system: OVCAR-3 ovarian
[35] = test system: OVCAR-4 ovarian
[36] = test system: OVCAR-5 ovarian
[37] = test system: OVCAR-8 ovarian
[38] = test system: RPMI-8226 leukemia
[39] = test system: RXF 393 renal
[40] = test system: RXF-631 renal
[41] = test system: SF-268 CNS
[42] = test system: SF-295 CNS
[43] = test system: SF-539 CNS
[44] = test system: SK-MEL-2 melanoma
[45] = test system: SK-MEL-28 melanoma
[46] = test system: SK-MEL-5 melanoma
[47] = test system: SK-OV-3 ovarian
[48] = test system: SN12C renal
[49] = test system: SNB-19 CNS
[50] = test system: SNB-75 CNS
[51] = test system: SNB-78 CNS
[52] = test system: SR leukemia
[53] = test system: SW-620 colon
[54] = test system: TK-10 renal
[55] = test system: U251 CNS
[56] = test system: UACC-257 melanoma
[57] = test system: UACC-62 melanoma
[58] = test system: UO-31 renal

## CCCSC1CCOP(=O)(N(CCCl)CCCl)N1C (stereo unspecified)
[1]
  GI50: > 100 µM
  TGI: > 100 µM
[2]
  GI50: > 100 µM
  TGI: > 100 µM
[3]
  GI50: > 100 µM
  TGI: > 100 µM
[4]
  GI50: > 100 µM
  TGI: > 100 µM
[5]
  GI50: > 100 µM
  TGI: > 100 µM
[6]
  GI50: > 100 µM
  TGI: > 100 µM
[7]
  GI50: > 100 µM
  TGI: > 100 µM
[8]
  GI50: > 100 µM
  TGI: > 100 µM
[9]
  GI50: 43.8 µM
  TGI: > 100 µM
[10]
  GI50: > 100 µM
  TGI: > 100 µM
[11]
  GI50: > 100 µM
  TGI: > 100 µM
[12]
  GI50: > 100 µM
  TGI: > 100 µM
[13]
  GI50: 56.4 µM
  TGI: > 100 µM
[14]
  GI50: > 100 µM
  TGI: > 100 µM
[15]
  GI50: 17.6 µM
  TGI: 67.1 µM
[16]
  GI50: > 100 µM
  TGI: > 100 µM
[17]
  GI50: 54.8 µM
  TGI: > 100 µM
[18]
  GI50: 95.5 µM
  TGI: > 100 µM
[19]
  GI50: > 100 µM
  TGI: > 100 µM
[20]
  GI50: 49.3 µM
  TGI: > 100 µM
[21]
  GI50: > 100 µM
  TGI: > 100 µM
[22]
  GI50: > 100 µM
  TGI: > 100 µM
[23]
  GI50: 21.6 µM
  TGI: 86.1 µM
[24]
  GI50: 66.9 µM
  TGI: > 100 µM
[25]
  GI50: > 100 µM
  TGI: > 100 µM
[26]
  GI50: > 100 µM
  TGI: > 100 µM
[27]
  GI50: > 100 µM
  TGI: > 100 µM
[28]
  GI50: > 100 µM
  TGI: > 100 µM
[29]
  GI50: > 100 µM
  TGI: > 100 µM
[30]
  GI50: > 100 µM
  TGI: > 100 µM
[31]
  GI50: > 100 µM
  TGI: > 100 µM
[32]
  GI50: 94.7 µM
  TGI: > 100 µM
[33]
  GI50: 90.8 µM
  TGI: > 100 µM
[34]
  GI50: > 100 µM
  TGI: > 100 µM
[35]
  GI50: > 100 µM
  TGI: > 100 µM
[36]
  GI50: > 100 µM
  TGI: > 100 µM
[37]
  GI50: > 100 µM
  TGI: > 100 µM
[38]
  GI50: 79.9 µM
  TGI: > 100 µM
[39]
  GI50: > 100 µM
  TGI: > 100 µM
[40]
  GI50: > 100 µM
  TGI: > 100 µM
[41]
  GI50: > 100 µM
  TGI: > 100 µM
[42]
  GI50: > 100 µM
  TGI: > 100 µM
[43]
  GI50: > 100 µM
  TGI: > 100 µM
[44]
  GI50: > 100 µM
  TGI: > 100 µM
[45]
  GI50: > 100 µM
  TGI: > 100 µM
[46]
  GI50: 76.7 µM
  TGI: > 100 µM
[47]
  GI50: > 100 µM
  TGI: > 100 µM
[48]
  GI50: > 100 µM
  TGI: > 100 µM
[49]
  GI50: > 100 µM
  TGI: > 100 µM
[50]
  GI50: > 100 µM
  TGI: > 100 µM
[51]
  GI50: > 100 µM
  TGI: > 100 µM
[52]
  GI50: 47.6 µM
  TGI: > 100 µM
[53]
  GI50: > 100 µM
  TGI: > 100 µM
[54]
  GI50: > 100 µM
  TGI: > 100 µM
[55]
  GI50: > 100 µM
  TGI: > 100 µM
[56]
  GI50: > 100 µM
  TGI: > 100 µM
[57]
  GI50: > 100 µM
  TGI: > 100 µM
[58]
  GI50: > 100 µM
  TGI: > 100 µM
